Measurements as given in US20240190854A1, “PYRIMIDINE OR PYRIDINE DERIVATIVES USEFUL AS HCN2 MODULATORS” (King's College London, priority 2021, published 2024).

By UniProt entry, the sequences of proteins in these tests, tags left out.
UniProt Q9UL51, whole entry: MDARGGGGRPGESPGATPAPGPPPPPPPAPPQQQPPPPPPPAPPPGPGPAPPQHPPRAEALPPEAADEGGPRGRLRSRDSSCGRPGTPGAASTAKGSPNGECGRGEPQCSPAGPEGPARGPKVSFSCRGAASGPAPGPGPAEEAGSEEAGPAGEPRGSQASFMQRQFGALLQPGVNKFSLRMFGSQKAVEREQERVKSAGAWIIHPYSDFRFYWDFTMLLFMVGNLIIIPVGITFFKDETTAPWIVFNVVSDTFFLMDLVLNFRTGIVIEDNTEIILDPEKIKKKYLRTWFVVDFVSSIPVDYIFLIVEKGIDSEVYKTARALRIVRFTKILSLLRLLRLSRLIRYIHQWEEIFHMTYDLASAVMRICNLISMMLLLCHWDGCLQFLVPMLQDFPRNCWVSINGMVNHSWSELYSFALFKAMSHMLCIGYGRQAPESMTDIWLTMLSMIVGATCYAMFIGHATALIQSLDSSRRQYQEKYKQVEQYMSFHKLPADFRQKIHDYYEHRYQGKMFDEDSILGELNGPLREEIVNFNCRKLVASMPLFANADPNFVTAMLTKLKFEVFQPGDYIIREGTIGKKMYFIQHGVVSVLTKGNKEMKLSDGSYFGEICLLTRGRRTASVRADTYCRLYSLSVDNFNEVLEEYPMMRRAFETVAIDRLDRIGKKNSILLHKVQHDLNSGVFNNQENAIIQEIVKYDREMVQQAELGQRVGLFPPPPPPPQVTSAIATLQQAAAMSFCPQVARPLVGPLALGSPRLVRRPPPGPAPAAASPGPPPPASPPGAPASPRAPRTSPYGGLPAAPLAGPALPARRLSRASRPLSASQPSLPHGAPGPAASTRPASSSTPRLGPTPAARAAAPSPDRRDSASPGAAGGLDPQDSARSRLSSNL
UniProt Q9Y3Q4, whole entry: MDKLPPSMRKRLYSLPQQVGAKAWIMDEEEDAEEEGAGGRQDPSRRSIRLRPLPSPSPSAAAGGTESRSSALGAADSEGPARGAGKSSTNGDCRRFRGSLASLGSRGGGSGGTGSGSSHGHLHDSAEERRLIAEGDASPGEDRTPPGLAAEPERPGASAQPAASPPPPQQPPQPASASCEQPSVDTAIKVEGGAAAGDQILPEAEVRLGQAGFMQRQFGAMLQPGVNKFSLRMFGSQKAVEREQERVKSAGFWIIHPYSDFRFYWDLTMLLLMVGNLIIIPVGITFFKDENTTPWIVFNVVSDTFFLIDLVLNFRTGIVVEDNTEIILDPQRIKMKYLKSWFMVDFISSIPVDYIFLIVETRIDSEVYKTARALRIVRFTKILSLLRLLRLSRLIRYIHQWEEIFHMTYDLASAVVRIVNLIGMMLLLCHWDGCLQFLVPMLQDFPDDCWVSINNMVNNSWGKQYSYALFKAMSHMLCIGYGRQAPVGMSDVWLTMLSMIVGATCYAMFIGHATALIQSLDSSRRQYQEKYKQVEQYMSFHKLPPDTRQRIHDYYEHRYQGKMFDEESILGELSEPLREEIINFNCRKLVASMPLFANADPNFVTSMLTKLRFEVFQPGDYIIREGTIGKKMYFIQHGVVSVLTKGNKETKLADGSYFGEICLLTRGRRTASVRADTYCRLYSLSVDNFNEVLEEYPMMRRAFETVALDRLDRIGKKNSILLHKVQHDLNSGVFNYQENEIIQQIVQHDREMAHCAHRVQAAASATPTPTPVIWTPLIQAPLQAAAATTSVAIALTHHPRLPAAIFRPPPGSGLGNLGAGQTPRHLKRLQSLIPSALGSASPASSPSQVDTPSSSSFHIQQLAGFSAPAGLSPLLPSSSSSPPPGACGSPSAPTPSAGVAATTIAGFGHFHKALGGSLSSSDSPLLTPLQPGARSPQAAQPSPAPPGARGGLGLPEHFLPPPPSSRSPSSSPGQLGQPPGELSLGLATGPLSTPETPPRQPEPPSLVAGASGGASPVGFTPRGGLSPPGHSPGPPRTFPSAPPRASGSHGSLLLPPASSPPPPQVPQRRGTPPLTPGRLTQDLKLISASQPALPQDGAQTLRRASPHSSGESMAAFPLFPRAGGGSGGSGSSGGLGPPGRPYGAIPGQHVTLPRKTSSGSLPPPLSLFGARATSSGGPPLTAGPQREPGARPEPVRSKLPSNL
UniProt O60741, whole entry: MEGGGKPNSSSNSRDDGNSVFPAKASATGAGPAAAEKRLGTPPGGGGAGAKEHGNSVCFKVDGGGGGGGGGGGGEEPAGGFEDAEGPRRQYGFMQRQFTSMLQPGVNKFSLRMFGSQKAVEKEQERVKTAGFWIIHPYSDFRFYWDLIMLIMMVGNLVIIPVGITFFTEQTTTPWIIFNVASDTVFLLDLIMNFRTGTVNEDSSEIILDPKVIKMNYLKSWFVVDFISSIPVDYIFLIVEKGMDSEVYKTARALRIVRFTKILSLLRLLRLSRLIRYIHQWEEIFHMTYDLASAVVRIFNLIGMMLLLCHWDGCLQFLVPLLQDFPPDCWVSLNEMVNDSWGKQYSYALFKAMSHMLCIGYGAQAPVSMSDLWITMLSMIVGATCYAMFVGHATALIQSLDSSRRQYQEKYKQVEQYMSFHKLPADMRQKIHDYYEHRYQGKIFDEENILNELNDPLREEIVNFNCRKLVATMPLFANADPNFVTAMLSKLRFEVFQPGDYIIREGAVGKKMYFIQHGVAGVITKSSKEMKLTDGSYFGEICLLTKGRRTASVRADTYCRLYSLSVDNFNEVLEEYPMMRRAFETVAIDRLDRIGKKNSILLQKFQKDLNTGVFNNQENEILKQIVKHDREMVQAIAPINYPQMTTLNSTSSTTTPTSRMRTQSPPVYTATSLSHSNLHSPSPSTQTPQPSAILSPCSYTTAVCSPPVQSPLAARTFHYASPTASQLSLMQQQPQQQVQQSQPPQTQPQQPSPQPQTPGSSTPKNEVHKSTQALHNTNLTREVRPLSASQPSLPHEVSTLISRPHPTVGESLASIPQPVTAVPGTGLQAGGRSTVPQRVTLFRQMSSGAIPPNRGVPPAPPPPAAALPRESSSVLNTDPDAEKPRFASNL

Assays:
Assay type in all cases: cell-based
HCN2 = HCN2 (Homo sapiens (Human), UniProt Q9UL51); experiment: HCN2 current assay using PatchXpress 7000A; conditions: read-out: PX HCN2 IC50; PatchXpress protocol; tested form: HCl
HCN4 = HCN4 (Homo sapiens (Human), UniProt Q9Y3Q4); experiment: HCN4 current assay using PatchXpress 7000A; conditions: read-out: PX HCN4 IC50; PatchXpress protocol; tested form: HCl
HCN1 = HCN1 (Homo sapiens (Human), UniProt O60741); experiment: HCN1 current assay using PatchXpress 7000A; conditions: read-out: PX HCN1 IC50; PatchXpress protocol; tested form: HCl

N[C@@H](Cc1cccc(F)n1)c1ccccc1-c1noc2ccccc12
IC50 (HCN2): 1000 nM | IC50 (HCN4): 10500 nM | IC50 (HCN1): 2000 nM
